Assay results: article PMC9541320, “Machine Learning Guided Discovery of Non‐Hemolytic Membrane Disruptive Anticancer Peptides” (Chemmedchem, 2022)

Test system: human red blood cells (hRBC)
Assay: Hemolysis assay on human red blood cells
Format: cell-based
Settings: human red blood cells in 10 mM phosphate buffer saline, pH 7.4, 25 °C
Excerpt: Synthesis and bioactivity testing. We prepared the 33 selected peptides, as well as the reference ACP LL‐III, by semi‐automated high‐temperature Fmoc solid‐phase peptide synthesis and obtained pure samples by preparative HPLC. All peptides were well‐behaved in terms of aqueous solubility, in line with the presence of two to seven cationic residues (lysine or arginine) in each sequence (Table 1). […]. We performed full IC50 determination for active sequences under the same conditions and similarly profiled HEK293 cells as a model for non‐cancer cells. Finally, we determined peptide concentrations causing 50 % hemolysis (HC50) on human red blood cells (hRBC) by serial 2‐fold dilution.
Hemolysis assay. Compounds were subjected to a hemolysis assay to assess the hemolytic effect on human red blood cells (hRBCs). […]. Controls on each plate included a blank medium control (PBS 100 μL) and a hemolytic activity control (0.1 % Triton^TM X‐100). 100 μL of hRBC suspension was incubated with 100 μL of each sample in PBS in V‐shape 96‐well plate. […]. Hemolysis was measured by analyzing the absorbance of free hemoglobin leaked out of compromised in the supernatants at 540 nm with a plate reader (Tecan instrument Infinite M1000). The percentage of hemolysis at each concentration was detected and HC50 was determined.

anwkkwigkviklvk [DB1]
Hemolysis HC50 hRBC: >200 µM
